Test results as given in ChEMBL document CHEMBL5053528, “Discovery of 2-(Ortho-Substituted Benzyl)-Indole Derivatives as Potent and Orally Bioavailable RORγ Agonists with Antitumor Activity” (J Med Chem, 2021).

What was measured:
[1] = tested on: MC-38; assay: Antitumor activity against mouse MC38 cells injected C57BL/6 mouse syngenic model assessed as reduction in tumor growth at 10 mg/kg, po administered once daily for 25 days in combination with anti-mouse PD-1 monoclonal antibody at 5 mg/kg, ip; format: functional, organism-based; settings: time 25.0 day
[2] = tested on: MC-38; assay: Antitumor activity against mouse MC38 cells injected C57BL/6 mouse syngenic model assessed as reduction in tumor growth at 30 mg/kg, po administered once daily for 25 days; format: functional, organism-based; settings: time 25.0 day
[3] = tested on: MC-38; assay: Antitumor activity against mouse MC38 cells injected C57BL/6 mouse syngenic model assessed as reduction in tumor growth at 10 mg/kg, po administered once daily for 25 days; format: functional, organism-based; settings: time 25.0 day
[4] = target: T1, Nuclear receptor ROR-alpha (Homo sapiens) (UniProt P35398); assay: Agonist activity at human RORalpha at up to 3 uM by nuclear reporter assay; settings: filed as agonist
T1 sequence (whole entry): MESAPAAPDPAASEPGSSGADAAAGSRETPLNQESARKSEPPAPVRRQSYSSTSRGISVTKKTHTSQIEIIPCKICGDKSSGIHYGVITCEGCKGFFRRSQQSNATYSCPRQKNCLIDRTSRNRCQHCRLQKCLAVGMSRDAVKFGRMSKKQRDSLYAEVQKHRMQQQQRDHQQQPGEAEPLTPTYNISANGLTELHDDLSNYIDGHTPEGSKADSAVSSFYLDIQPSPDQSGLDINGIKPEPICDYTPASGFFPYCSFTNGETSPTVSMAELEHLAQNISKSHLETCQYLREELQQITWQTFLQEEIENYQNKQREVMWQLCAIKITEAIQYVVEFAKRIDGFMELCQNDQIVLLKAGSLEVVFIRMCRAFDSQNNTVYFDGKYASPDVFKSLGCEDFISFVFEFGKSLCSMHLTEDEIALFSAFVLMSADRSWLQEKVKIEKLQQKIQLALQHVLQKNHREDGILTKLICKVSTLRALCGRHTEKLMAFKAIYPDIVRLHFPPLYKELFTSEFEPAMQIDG

Measured: Activity

CCS(=O)(=O)c1ccc([C@H](CO)NC(=O)c2ccc3c(c2)cc(Cc2ccc(Cl)cc2C(F)(F)F)n3CCF)cc1
active: all assays above

Active and inactive are the calls of the source.
